Molecular target: HDAC6 (Homo sapiens, UniProt Q9UBN7)
Assay: In vitro deacetylase assay on HDAC6
Details: TSA, same conditions as the mitochondrial lysate assay

By UniProt entry, the sequences of proteins in these tests, tags left out. Where a name states a change or a piece, a line headed by the entry shows the natural chain unless it says otherwise.
UniProt Q9UBN7: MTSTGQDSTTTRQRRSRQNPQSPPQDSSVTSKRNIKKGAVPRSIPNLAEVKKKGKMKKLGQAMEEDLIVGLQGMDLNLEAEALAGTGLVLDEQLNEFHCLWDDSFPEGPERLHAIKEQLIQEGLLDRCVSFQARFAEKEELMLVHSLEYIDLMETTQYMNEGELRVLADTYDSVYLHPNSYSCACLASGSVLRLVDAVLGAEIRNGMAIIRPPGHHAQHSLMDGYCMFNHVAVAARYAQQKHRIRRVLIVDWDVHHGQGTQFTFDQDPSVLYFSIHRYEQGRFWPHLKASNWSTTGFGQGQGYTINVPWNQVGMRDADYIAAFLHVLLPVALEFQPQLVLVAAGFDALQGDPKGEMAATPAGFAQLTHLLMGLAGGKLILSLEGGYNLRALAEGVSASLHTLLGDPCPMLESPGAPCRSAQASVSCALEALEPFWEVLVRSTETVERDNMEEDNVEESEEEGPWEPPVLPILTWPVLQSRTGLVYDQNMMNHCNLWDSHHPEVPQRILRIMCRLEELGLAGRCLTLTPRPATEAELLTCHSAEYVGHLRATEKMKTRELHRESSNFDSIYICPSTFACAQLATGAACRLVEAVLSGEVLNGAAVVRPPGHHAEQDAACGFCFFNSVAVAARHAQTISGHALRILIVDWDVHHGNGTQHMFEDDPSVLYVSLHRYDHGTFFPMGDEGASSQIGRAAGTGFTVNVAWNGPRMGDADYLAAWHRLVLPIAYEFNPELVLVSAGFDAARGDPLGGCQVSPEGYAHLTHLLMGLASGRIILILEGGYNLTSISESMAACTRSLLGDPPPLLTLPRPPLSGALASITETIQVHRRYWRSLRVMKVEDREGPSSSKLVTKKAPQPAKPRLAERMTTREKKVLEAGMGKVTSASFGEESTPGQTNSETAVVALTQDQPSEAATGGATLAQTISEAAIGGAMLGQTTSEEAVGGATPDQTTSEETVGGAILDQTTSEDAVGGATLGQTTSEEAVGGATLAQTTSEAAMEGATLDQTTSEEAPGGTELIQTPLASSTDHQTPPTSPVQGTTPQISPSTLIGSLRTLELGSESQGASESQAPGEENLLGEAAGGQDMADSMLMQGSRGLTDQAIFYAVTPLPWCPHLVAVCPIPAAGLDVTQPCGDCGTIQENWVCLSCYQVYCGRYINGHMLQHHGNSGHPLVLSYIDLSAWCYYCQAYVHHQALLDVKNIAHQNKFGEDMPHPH

Substance: trichostatin A
- effect on activity of the class II HDAC, HDAC6: significant inhibition

— patent US7273713B2, “Methods of modulating mitochondrial NAD-dependent deacetylase” (The Regents of the University of California, priority 2002, dated 2007)
